Assay results: US20170071976A1, “PHARMACEUTICAL SOLUTION HAVING ANTI-TUMOR EFFECT-ENHANCING AND TOXICITY-REDUCING EFFECT, AND PHARMACEUTICAL COMPOSITION COMPRISING SAME” (priority 2014, published 2017)

Test system: xenograft tumors from human ovarian cancer SKOV3 cells
Assay: SKOV3 xenograft in nude mice, intravenous deuterium oxide in combination with paclitaxel
Type: in vivo, BALB/c nude mice
Conditions: Paclitaxel 8 mg/kg × 11, tail vein
From the text: 3. […] 4. Statistics: the same as Example 21.

## CC(=O)O[C@H]1C(=O)[C@@]2(C)[C@H]([C@H](OC(=O)c3ccccc3)[C@]3(O)C[C@H](OC(=O)[C@H](O)[C@@H](NC(=O)c4ccccc4)c4ccccc4)C(C)=C1C3(C)C)[C@]1(OC(C)=O)CO[C@@H]1C[C@@H]2O [Paclitaxel, paclitaxel]
  Body weight (g) Initial: 20.1 g
